The source of these data is patent US9499482B2, “Pyrrolone or pyrrolidinone melanin concentrating hormone receptor-1 antagonists” (BRISTOL-MYERS SQUIBB COMPANY, priority 2012, dated 2016).

Chains of the proteins cited; added tags and fusions are not shown.
UniProt Q99705, whole entry E4Q/A5T: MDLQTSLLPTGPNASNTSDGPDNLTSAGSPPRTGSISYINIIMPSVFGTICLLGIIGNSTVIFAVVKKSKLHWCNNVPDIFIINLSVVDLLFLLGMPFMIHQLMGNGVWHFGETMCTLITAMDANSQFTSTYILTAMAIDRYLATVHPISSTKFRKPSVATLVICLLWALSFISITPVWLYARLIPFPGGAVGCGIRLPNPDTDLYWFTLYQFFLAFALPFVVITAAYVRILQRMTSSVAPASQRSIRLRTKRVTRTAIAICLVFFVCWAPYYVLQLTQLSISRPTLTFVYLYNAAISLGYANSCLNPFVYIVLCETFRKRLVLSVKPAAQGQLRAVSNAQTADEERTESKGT

This assay addresses human melanin concentrating hormone receptor (MCHR1), mutated (E4Q, A5T) hMCHR1 (Homo sapiens (Human), UniProt Q99705, A5T/E4Q). Put plainly: Radioligand binding assay for assessment of MCHR1 activity ([125I]-MCH competition, HEK-293 membranes). Conditions: membranes from HEK-293 cells expressing mutated (E4Q, A5T) hMCHR1; 0.06-0.1 nM [Phe13,[125I]Tyr19]-MCH. How it is done: Radioligand Binding Assay for Assessment of MCHR1 Activity
An in vitro binding assay was used to determine the compound Ki value or ability to antagonize binding of a peptide agonist to the human melanin concentrating hormone receptor (MCHR1). Membranes from stably transfected HEK-293 cells expressing a mutated (E4Q, A5T) hMCHR1 receptor were prepared by dounce homogenization and differential centrifugation. […] Filters were dried, 0.05 mL MicroScint 20 was added to each well and radioactivity was subsequently quantified by scintillation counting on a TOPCOUNT® microplate scintillation counter (Packard). Inhibitory constants were determined by nonlinear least squares analysis using a four parameter logistic equation.
For the compound `COc1cc(N2CC[C@H](Oc3ccc(C4CC4)cc3)C2=O)ccc1OCCN1CCCC1` (stereo in doubt) [Example 1, 3-(4-cyclopropylphenoxy)-1-(3-methoxy-4-(2-(pyrrolidin-1-yl)ethoxy)phenyl)pyrrolidin-2-one], the Ki (in general, a dissociation constant, usually derived from enzyme kinetics or from competition with a known ligand) was 2 nM.

In turn, `COc1cc(N2CC[C@@H](Oc3ccc(C4CC4)cc3)C2=O)ccc1OCCN1CCCC1` (stereo in doubt) [Example 2, 3-(4-cyclopropylphenoxy)-1-(3-methoxy-4-(2-(pyrrolidin-1-yl)ethoxy)phenyl)pyrrolidin-2-one] showed a Ki of 24 nM.

In the case of `CNCCOc1ccc(N2CC[C@H](Oc3ccc(C4CC4)cc3)C2=O)cc1OC` (stereo in doubt) [Example 15, 3-(4-cyclopropylphenoxy)-1-(3-methoxy-4-(2-(methylamino)ethoxy)phenyl)pyrrolidin-2-one], the affinity corresponds to a Ki of 1.6 nM.

Compound `CCc1cc(N2CC[C@@H](Oc3ccc(C4CC4)cc3)C2=O)ccc1OCCN1CCCC1` (stereo in doubt) [Example 42, 3-(4-Cyclopropylphenoxy)-1-(3-ethyl-4-(2-(pyrrolidin-1-yl)ethoxy)phenyl)pyrrolidin-2-one] registered a Ki of 5 nM.

Take `COc1cc(N2CC[C@H](Oc3ccc(-c4ccccc4)cc3)C2=O)ccc1OCCN1CCCC1` (stereo in doubt) [Example 108, 3-(biphenyl-4-yloxy)-1-(3-methoxy-4-(2-(pyrrolidin-1-yl)ethoxy)phenyl)pyrrolidin-2-one]: the affinity corresponds to a Ki of 0.5 nM.

The compound `COc1cc(N2CC[C@@H](Oc3ccc(-c4ccccc4)cc3)C2=O)ccc1OCCN1CCCC1` (stereo in doubt) [Example 109, 3-(biphenyl-4-yloxy)-1-(3-methoxy-4-(2-(pyrrolidin-1-yl)ethoxy)phenyl)pyrrolidin-2-one] had a Ki of 14 nM. Compared with the last compound, the Ki is about 28-fold higher.

Regarding `CCc1cc(N2CC[C@H](Oc3ccc(-c4ccccc4)cc3)C2=O)ccc1OCCN1CCCC1` (stereo in doubt) [Example 110, 3-(biphenyl-4-yloxy)-1-(3-ethyl-4-(2-(pyrrolidin-1-yl)ethoxy)phenyl)pyrrolidin-2-one], the affinity corresponds to a Ki of 0.5 nM.

Compound `CCc1cc(N2CC[C@@H](Oc3ccc(-c4ccccc4)cc3)C2=O)ccc1OCCN1CCCC1` (stereo in doubt) [Example 111, 3-(biphenyl-4-yloxy)-1-(3-ethyl-4-(2-(pyrrolidin-1-yl)ethoxy)phenyl)pyrrolidin-2-one] returned a Ki of 12 nM.

The compound `Cc1cc(N2CC[C@H](Oc3ccc(-c4ccccc4)cc3)C2=O)ccc1OCCN1CCCC1` (stereo in doubt) [Example 112, 3-(biphenyl-4-yloxy)-1-(3-methyl-4-(2-(pyrrolidin-1-yl)ethoxy)phenyl)pyrrolidin-2-one] registered an inhibition constant (Ki) of 0.5 nM.

In turn, `Cc1cc(N2CC[C@@H](Oc3ccc(-c4ccccc4)cc3)C2=O)ccc1OCCN1CCCC1` (stereo in doubt) [Example 113, 3-(biphenyl-4-yloxy)-1-(3-methyl-4-(2-(pyrrolidin-1-yl)ethoxy)phenyl)pyrrolidin-2-one] displayed a Ki of 15 nM.

In the case of `O=C1[C@@H](Oc2ccc(-c3ccccc3)cc2)CCN1c1ccc(OCCN2CCCC2)c(Cl)c1` (stereo in doubt) [Example 114, 3-([1,1′-biphenyl]-4-yloxy)-1-(3-chloro-4-(2-(pyrrolidin-1-yl)ethoxy)phenyl)pyrrolidin-2-one], the Ki is 0.5 nM.

Compound `O=C1[C@H](Oc2ccc(-c3ccccc3)cc2)CCN1c1ccc(OCCN2CCCC2)c(Cl)c1` (stereo in doubt) [Example 115, 3-([1,1′-biphenyl]-4-yloxy)-1-(3-chloro-4-(2-(pyrrolidin-1-yl)ethoxy)phenyl)pyrrolidin-2-one] gave a Ki of 12 nM.

In turn, `COc1cc(N2CC[C@H](Oc3ccc(C4CC4)cc3)C2=O)ccc1N1CCOCC1` (stereo in doubt) [Example 134, 3-(4-cyclopropylphenoxy)-1-(3-methoxy-4-morpholinophenyl)pyrrolidin-2-one] came in with a Ki of 13 nM. This Ki and that of the compound before are within 1.5-fold of each other.

The compound `COc1cc(N2CC[C@@H](Oc3ccc(C4CC4)cc3)C2=O)ccc1N1CCOCC1` (stereo in doubt) [Example 135, 3-(4-cyclopropylphenoxy)-1-(3-methoxy-4-morpholinophenyl)pyrrolidin-2-one] displayed a Ki of 534 nM.

With `CCc1cc(N2CC[C@H](Oc3ccc(C4CC4)cc3)C2=O)ccc1N1CCCC1` (stereo in doubt) [Example 136, 3-(4-cyclopropylphenoxy)-1-(3-ethyl-4-(pyrrolidin-1-yl)phenyl)pyrrolidin-2-one], the affinity, expressed as Ki, was 167 nM.

As to `CCc1cc(N2CC[C@@H](Oc3ccc(C4CC4)cc3)C2=O)ccc1N1CCCC1` (stereo in doubt) [Example 137, 3-(4-cyclopropylphenoxy)-1-(3-ethyl-4-(pyrrolidin-1-yl)phenyl)pyrrolidin-2-one], the affinity, expressed as Ki, was 1360 nM. This Ki is about 8.1-fold higher than that of the compound before.

Take `COc1cc(N2CC[C@H](Oc3ccc(C4CC4)cc3)C2=O)ccc1OCCN1CC[C@H](F)C1` [Example 3]: the affinity corresponds to a Ki of 2 nM. Compared with the last compound, the Ki is about 680-fold lower.

Consider `COc1cc(N2CC[C@H](Oc3ccc(C4CC4)cc3)C2=O)ccc1OCCN1CC[C@@H](F)C1` [Example 4], for which affinity was put at a Ki of 2 nM.

For `COc1cc(N2CC[C@H](Oc3ccc(C4CC4)cc3)C2=O)ccc1OCCN1CC[C@H](O)C1` [Example 5], affinity was put at a Ki of 2 nM. In other words, the single-digit nanomolar range.

`COc1cc(N2CC[C@H](Oc3ccc(C4CC4)cc3)C2=O)ccc1OCCN1CC[C@@H](O)C1` [Example 6]: the Ki was found to be 2 nM.

Regarding `COc1cc(N2CC[C@H](Oc3ccc(C4CC4)cc3)C2=O)ccc1OCCN1CCC(F)(F)C1` [Example 7], affinity was put at a Ki of 7 nM.

For the compound `COc1cc(N2CC[C@H](Oc3ccc(C4CC4)cc3)C2=O)ccc1OCCN1CCC[C@@H]1CO` [Example 8], the affinity corresponds to a Ki of 2.5 nM.

The compound `COc1cc(N2CC[C@H](Oc3ccc(C4CC4)cc3)C2=O)ccc1OCCN1CCC[C@H]1CO` [Example 9] gave a Ki of 2 nM.

For `COc1cc(N2CC[C@H](Oc3ccc(C4CC4)cc3)C2=O)ccc1OCCN1CC(O)C1` [Example 10], the Ki is 4 nM.

Turning to `COc1cc(N2CC[C@H](Oc3ccc(C4CC4)cc3)C2=O)ccc1OCCN(C)CCO` [Example 11], the Ki worked out at 2 nM. This Ki is about 2-fold lower than that of the compound before.

For the compound `COc1cc(N2CC[C@H](Oc3ccc(C4CC4)cc3)C2=O)ccc1OCCN1CCNC(=O)C1` [Example 13], the Ki turned out to be 11 nM.

Compound `COc1cc(N2CC[C@H](Oc3ccc(C4CC4)cc3)C2=O)ccc1OCCN(C)C` [Example 14] came in with a Ki of 2 nM.

For the compound `COc1cc(N2CC[C@H](Oc3ccc(C4CC4)cc3)C2=O)ccc1OCCNC1(C)COC1` [Example 16], the Ki amounted to 5 nM.

In turn, `COc1cc(N2CC[C@H](Oc3ccc(C4CC4)cc3)C2=O)ccc1OCCN1CCOCC1` [Example 17] displayed a Ki of 3 nM.

In turn, `COc1cc(N2CC[C@H](Oc3ccc(C4CC4)cc3)C2=O)ccc1OCCN1CC[C@@H](N(C)C)C1` [Example 18] gave a Ki of 3 nM.

On to `COc1cc(N2CC[C@H](Oc3ccc(C4CC4)cc3)C2=O)ccc1OCCN1CCC[C@H](O)C1` [Example 19], for which the affinity, expressed as Ki, was 1.6 nM.

`COc1cc(N2CC[C@H](Oc3ccc(C4CC4)cc3)C2=O)ccc1OCCN1CCC(F)(F)CC1` [Example 20] had an inhibition constant (Ki) of 4 nM.

`COc1cc(N2CC[C@H](Oc3ccc(C4CC4)cc3)C2=O)ccc1OCCNC12CC3CC(CC(O)(C3)C1)C2` [Example 21] returned a Ki of 2 nM.

With `COc1cc(N2CC[C@H](Oc3ccc(C4CC4)cc3)C2=O)ccc1OCCN1CCN(c2cnccn2)CC1` [Example 22], the Ki was 4 nM.

With `COc1cc(N2CC[C@H](Oc3ccc(C4CC4)cc3)C2=O)ccc1OCCNCCN1CCCC1` [Example 23], the affinity, expressed as Ki, was 2 nM.

Take `COc1cc(N2CC[C@H](Oc3ccc(C4CC4)cc3)C2=O)ccc1OCCNC(C)(C)C` [Example 24]: the Ki is 2 nM.

As to `COc1cc(N2CC[C@H](Oc3ccc(C4CC4)cc3)C2=O)ccc1OCCNC1(CO)CCCC1` [Example 25], the Ki is 2 nM.

With `COc1cc(N2CC[C@H](Oc3ccc(C4CC4)cc3)C2=O)ccc1OCCNCC(C)(C)N1CCOCC1` [Example 27], the Ki worked out at 5 nM.

On to `COc1cc(N2CC[C@H](Oc3ccc(C4CC4)cc3)C2=O)ccc1OCCN1CCC(O)CC1` [Example 28], for which the Ki is 2 nM.

On to `COc1cc(N2CC[C@H](Oc3ccc(C4CC4)cc3)C2=O)ccc1OCCN1CCN(c2ncccn2)CC1` [Example 29], for which affinity was put at a Ki of 6 nM. This Ki lies about 3-fold higher than the previous one.

Turning to `COc1cc(N2CC[C@H](Oc3ccc(C4CC4)cc3)C2=O)ccc1OCCN1CCC(N2CCOCC2)C1` (some centres unmarked) [Example 30], the affinity corresponds to a Ki of 2 nM.

Take `COc1cc(N2CC[C@H](Oc3ccc(C4CC4)cc3)C2=O)ccc1OCCN1CC[C@@H](OC)C1` [Example 31]: the Ki was determined as 1.8 nM.

Turning to `COc1cc(N2CC[C@H](Oc3ccc(C4CC4)cc3)C2=O)ccc1OCCN1CC[C@H](OC)C1` [Example 32], the Ki worked out at 1.4 nM.

In the case of `COc1cc(N2CC[C@H](Oc3ccc(C4CC4)cc3)C2=O)ccc1OCCN1CCN(C)CC1` [Example 33], the affinity, expressed as Ki, was 4 nM.

`COc1cc(N2CC[C@H](Oc3ccc(C4CC4)cc3)C2=O)ccc1OCCN1CC[C@@H](N)C1` [Example 34] returned a Ki of 4 nM.

In turn, `COc1cc(N2CC[C@H](Oc3ccc(C4CC4)cc3)C2=O)ccc1OCCN` [Example 35] displayed a Ki of 3 nM.

The compound `COc1cc(N2CC[C@H](Oc3ccc(C4CC4)cc3)C2=O)ccc1OCCN1CCNCC1` [Example 36] displayed a Ki of 5 nM. This Ki lies about 1.7-fold higher than the previous one.

In turn, `COc1cc(N2CC[C@H](Oc3ccc(C4CC4)cc3)C2=O)ccc1OCCN1C[C@@H](O)[C@@H](O)C1` [Example 37] registered a Ki of 3 nM. This Ki lies about 1.7-fold lower than the previous one.

In the case of `COc1cc(N2CC[C@H](Oc3ccc(C4CC4)cc3)C2=O)ccc1OCCN1CCC2(CC1)COC2` [Example 38], the Ki came out at 1.1 nM.

The compound `COc1cc(N2CC[C@H](Oc3ccc(C4CC4)cc3)C2=O)ccc1OCCN1CC(N2CCCC2)C1` [Example 39] displayed a Ki of 1.6 nM.
